{"source": "patent US9630841B2", "about": "“Method for producing an aqueous stable chlorine dioxide solution” (A.P.F. AQUA SYSTEM AG, priority 2010, dated 2017)", "origin": "cited, not measured here", "details": "aqueous solution, 20° C.; cited from earlier work"}
{"substance": "sodium chlorite", "values": [{"measurement": "saturation concentration", "result": "about 64.5 wt %"}]}
